Data reported in patent publication US4414224A (SmithKline Beckman Corporation, priority 1982, dated 1983).

Chains of the proteins cited; added tags and fusions are not shown. Residues count along the entry.
UniProt G1T1Q0, 1-443: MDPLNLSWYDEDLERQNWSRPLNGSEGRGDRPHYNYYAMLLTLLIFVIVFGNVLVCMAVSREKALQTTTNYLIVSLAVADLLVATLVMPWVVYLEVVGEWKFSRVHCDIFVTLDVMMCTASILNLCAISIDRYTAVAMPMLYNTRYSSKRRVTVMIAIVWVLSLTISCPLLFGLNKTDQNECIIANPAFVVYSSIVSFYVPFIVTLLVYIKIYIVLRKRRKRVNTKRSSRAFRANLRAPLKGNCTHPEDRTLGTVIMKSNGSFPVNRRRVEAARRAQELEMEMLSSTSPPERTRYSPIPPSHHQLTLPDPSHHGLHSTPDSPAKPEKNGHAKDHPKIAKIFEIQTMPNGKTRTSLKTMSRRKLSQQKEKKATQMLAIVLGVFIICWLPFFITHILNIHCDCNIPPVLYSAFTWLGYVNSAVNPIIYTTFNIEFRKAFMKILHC

Molecular target: prejunctional dopamine receptors (Oryctolagus cuniculus, UniProt G1T1Q0)
Experiment: cell-based
Source text: The isolated perfused rabbit ear artery preparation described by J. P. Hiebel and R. G. Pendleton, Arch.

Kb | Kb (receptor dissociation constant (KB) as a blocker of dopamine-induced inhibition, agonist: dopamine) | Structure (SMILES) | EC50 | inhibitory effect of the compound in presence of 1-sulpiride (1-sulpiride, selective dopamine antagonist)
 |  | CCCN(CCC)CCc1ccc(O)c2c1CC(=O)N2 [4-(2-di-n-propylaminoethyl)-7-hydroxy-2(3H)-indolone] | 1.8 ± 0.3 nM | blocked by 1-sulpiride
8.8 nM | 32 nM | CCN1CCC[C@H]1CNC(=O)c1cc(S(N)(=O)=O)ccc1OC [Compound 1-sulpiride, 1-sulpiride, reference compound] |  | 

Read-outs that look alike come from different tables or passages of the source.
